Patent US20230416330A1, “Optimized GIP Peptide Analogues” (Antag Therapeutics ApS, priority 2019, published 2023)

Experiments:
[1] = Solubility by visual inspection of peptide solutions; format: physicochemical; details: Na, MilliQ (8)
Procedure: (§1) Peptides were either dissolved in sodium phosphate buffer (50 mM, pH 7.4, filtered) or dissolved in ultrapure (MilliQ) water (adjusted to pH 7.4 with NaOH, filtered) (see Table 3). All peptide samples were prepared to a concentration of 1, 5, 7.5 or 15 mg/ml. All samples, with the exception of reference peptides GIP(3-30), AT158, and AT482 dissolved readily and produced clear and colorless solutions with gentle mixing. Peptide samples were subsequently filtered through 0.22 μm nylon filters (Q-Max® RR syringe filter, 13 mm, Frisenette, DK) to produce particle-free solutions. All samples were added to a 96-well plate reader for the ThT assay at t=0.
Clear visual appearance may be taken as an indicator of the immediate solubility of the peptide. […] Thus, A13Aib and/or N24E substitutions appear to increase solubility.

[2] = Physical stability: fibril formation in Thioflavin T (ThT) assay with agitation; format: physicochemical; details: Na, MilliQ (8), 25° C.
Procedure: Continuous measurement of the fluorescence emission at 486 nm can be used as a measure of fibrillation behavior of peptides and proteins. The time until onset of fibrillation or fibrillation lag time is estimated here by defining the lag time (Tlag) as the point in time where the signal relative to the pre-transition baseline has reached 10% of the post-transition baseline.
50 mM sodium phosphate buffer for dissolving some samples was prepared in ultrapure water (Milli-Q® Reference A+ System, Merck) with a resistivity of 18.2 MΩ·cm. The buffer was adjusted to pH 7.4 and filtered.
The ultrapure water (MilliQ) for dissolving some samples was adjusted to pH 7.4 with NaOH and filtered prior to sample preparation.
as §1, with “t=0. […]” for “t=0.”

CC[C@H](C)[C@H](NC(=O)[C@H](CCCCN)NC(=O)[C@H](CCC(=O)O)NC(=O)[C@H](CC(C)C)NC(=O)C(C)(C)NC(=O)[C@@H](NC(=O)[C@H](CO)NC(=O)[C@H](Cc1ccc(O)cc1)NC(=O)[C@H](CCC(=O)O)NC(=O)[C@H](CO)NC(=O)[C@@H](NC(=O)[C@H](Cc1ccccc1)NC(=O)[C@@H](NC(=O)CNC(=O)[C@@H](N)CCC(=O)O)[C@@H](C)O)[C@@H](C)CC)[C@@H](C)CC)C(=O)N[C@@H](CCCCNC(=O)[C@H](CCCCN)NC(=O)[C@H](C)NC(=O)[C@H](C)NC(=O)[C@H](C)NC(=O)[C@H](CCC(=O)O)NC(=O)[C@H](CCCCN)NC(=O)[C@H](C)NC(=O)[C@H](C)NC(=O)[C@H](C)NC(=O)[C@H](CCC(=O)O)NC(=O)[C@H](CCCCN)NC(=O)[C@H](C)NC(=O)[C@H](C)NC(=O)[C@H](C)NC(=O)[C@H](CCC(=O)O)NC(=O)CCCCCCCCCCCCCCC(=O)O)C(=O)N[C@@H](CCC(N)=O)C(=O)N[C@@H](CCC(N)=O)C(=O)N[C@@H](CCC(=O)O)C(=O)N[C@@H](Cc1ccccc1)C(=O)N[C@H](C(=O)N[C@@H](CCC(=O)O)C(=O)N[C@@H](Cc1c[nH]c2ccccc12)C(=O)N[C@@H](CC(C)C)C(=O)N[C@@H](CC(C)C)C(=O)N[C@@H](C)C(=O)N[C@@H](CCC(N)=O)C(=O)N[C@@H](CCCCN)C(=O)N1CCC[C@H]1C(=O)N[C@@H](CO)C(=O)N[C@@H](CO)C(=O)NCC(=O)N[C@@H](C)C(=O)N1CCC[C@H]1C(=O)N1CCC[C@H]1C(=O)N1CCC[C@H]1C(=O)N[C@@H](CO)C(=O)O)C(C)C [AT724]
Visual appearance ([1]; 7.5 mg/ml): Clear | Visual appearance ([1]; 15 mg/ml): Clear | Avr lag time (h) ([2]; 7.5 mg/ml): fnd (Fnd = fibrils not detected within experiment time (96 hours) with agitation.) | Avr lag time (h) ([2]; 15 mg/ml): fnd (Fnd = fibrils not detected within experiment time (96 hours) with agitation.)
